The values below come from article doi:10.1101/810531 (bioRxiv, 2019).

The test deals with SNARE domain of syntaxin 1a (aa 180-262) (Rattus norvegicus, UniProt P32851, in part). In words: native gel or EMSA. (A gel shift assay detects complexes by their altered migration in electrophoresis.)

B1: second helix of SNAP-25 (aa 120-206) (domain or fragment)
chain: VVDEREQMAISGGFIRRVTNDARENEMDENLEQVSGIIGNLRHMALDMGNEIDTQNRQIDRIMEKADSNKTRIDEANQRATKMLGSG
As for B1, the binding result is “binds”.
